Assay results taken from PubChem BioAssay AID624288 (National Center for Advancing Translational Sciences (NCATS), 2012).
This is a selection; strong and weak results do not stand in their true shares. Records with an inconclusive call do not appear. Active and inactive are the calls of the source. Calls follow the shape of the full dose curve; cell line not stated here.

Experiment: qHTS for Antagonists of gsp, the Etiologic Mutation Responsible for Fibrous Dysplasia/McCune-Albright Syndrome: qHTS; also: nearly all actives have a fitted effect of over 65% in size
Details: gsp-mutant cells, cAMP HTRF, 30 min
Potency is read from the fitted curve at half-maximal effect.

| SMILES | Potency |
| --- | --- |
| CN(C)C(=O)c1cc([N+](=O)[O-])cc2c1-c1c(cc([N+](=O)[O-])cc1[N+](=O)[O-])C2=O | active: 39.8 µM |
| O=[N+]([O-])c1ccc(O)c(/C=N/Nc2ccc([N+](=O)[O-])cc2[N+](=O)[O-])c1 | active: 4.47 µM |
| O=c1c2cc([N+](=O)[O-])ccc2[nH]c2c([N+](=O)[O-])cc([N+](=O)[O-])cc12 | active: 28.2 µM |
